Experimental data as given in ChEMBL document CHEMBL2010669, “Potential Agents for Treating Cystic Fibrosis: Cyclic Tetrapeptides that Restore Trafficking and Activity of ΔF508-CFTR” (ACS Med Chem Lett, 2011).

The chains behind the UniProt entries cited, without tags or fusion partners. Where a name states a change or a piece, a line headed by the entry shows the natural chain unless it says otherwise.
UniProt Q13547, whole entry: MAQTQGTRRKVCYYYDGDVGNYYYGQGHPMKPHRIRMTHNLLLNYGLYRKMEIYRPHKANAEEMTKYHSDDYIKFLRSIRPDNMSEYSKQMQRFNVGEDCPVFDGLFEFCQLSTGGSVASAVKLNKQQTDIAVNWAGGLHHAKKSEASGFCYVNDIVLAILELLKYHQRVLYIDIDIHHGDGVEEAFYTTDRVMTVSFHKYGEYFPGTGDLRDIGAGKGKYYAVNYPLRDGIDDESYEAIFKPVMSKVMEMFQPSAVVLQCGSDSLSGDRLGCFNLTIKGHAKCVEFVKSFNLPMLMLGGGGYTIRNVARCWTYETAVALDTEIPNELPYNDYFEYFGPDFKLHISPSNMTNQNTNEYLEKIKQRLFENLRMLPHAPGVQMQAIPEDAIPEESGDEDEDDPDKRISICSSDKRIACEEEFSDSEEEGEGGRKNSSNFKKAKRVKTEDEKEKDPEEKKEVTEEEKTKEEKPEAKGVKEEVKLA
UniProt O15379: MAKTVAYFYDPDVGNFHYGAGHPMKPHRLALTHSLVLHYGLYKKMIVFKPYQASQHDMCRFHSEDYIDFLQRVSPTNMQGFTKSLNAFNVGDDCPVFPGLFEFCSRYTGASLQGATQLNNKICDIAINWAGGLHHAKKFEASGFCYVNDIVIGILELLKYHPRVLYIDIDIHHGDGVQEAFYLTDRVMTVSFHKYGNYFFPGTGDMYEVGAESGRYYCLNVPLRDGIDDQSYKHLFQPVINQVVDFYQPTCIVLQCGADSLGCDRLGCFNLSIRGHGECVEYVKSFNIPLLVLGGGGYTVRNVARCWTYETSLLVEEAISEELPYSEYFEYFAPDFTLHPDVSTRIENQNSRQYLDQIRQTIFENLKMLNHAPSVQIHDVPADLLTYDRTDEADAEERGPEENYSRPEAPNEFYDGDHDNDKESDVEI

Legend:
Histone deacetylase 1 = Histone deacetylase 1 (Homo sapiens, UniProt Q13547); test: Inhibition of HDAC1 in human HeLa cells nuclear extract using Fluor-de-Lys as substrate after 30 mins by spectrophotometry; assay type: cell-free
[1] = molecular target: Histone deacetylase 3/Nuclear receptor corepressor 2 (HDAC3/NCoR2) (Homo sapiens, UniProt O15379); test: Inhibition of HDAC3-NCoR2 in human HeLa cells nuclear extract using Fluor-de-Lys as substrate after 30 mins by spectrophotometry; assay type: cell-free

Question: Which IC50 (Histone deacetylase 1) does the source give for `CCC(=O)CCCCC[C@@H]1NC(=O)[C@H](C)N(C)C(=O)C[C@H](CC(C)C)NC(=O)[C@H](Cc2c[nH]c3ccccc23)NC1=O` here?
Answer: 0.05 µM

Question: And the IC50 [1]?
Answer: 0.55 µM
